Tests used:
αvβ6 integrin = αvβ6 integrin (Homo sapiens, UniProt P06756+P18564); details: cited from earlier work
[1] = target: integrin αvβ6 (K562 αvβ6:mCherry cells) (Homo sapiens, UniProt P06756+P18564); details: read-out: apparent binding affinity (KD)

By UniProt entry, the sequences of proteins in these tests, tags left out. Residues count along the entry.
UniProt P06756, 891-992 partner limits assumed: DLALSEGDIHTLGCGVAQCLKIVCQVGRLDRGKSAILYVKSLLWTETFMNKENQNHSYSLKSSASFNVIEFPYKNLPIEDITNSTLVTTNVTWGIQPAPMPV
UniProt P06756, 31-889 limits assumed: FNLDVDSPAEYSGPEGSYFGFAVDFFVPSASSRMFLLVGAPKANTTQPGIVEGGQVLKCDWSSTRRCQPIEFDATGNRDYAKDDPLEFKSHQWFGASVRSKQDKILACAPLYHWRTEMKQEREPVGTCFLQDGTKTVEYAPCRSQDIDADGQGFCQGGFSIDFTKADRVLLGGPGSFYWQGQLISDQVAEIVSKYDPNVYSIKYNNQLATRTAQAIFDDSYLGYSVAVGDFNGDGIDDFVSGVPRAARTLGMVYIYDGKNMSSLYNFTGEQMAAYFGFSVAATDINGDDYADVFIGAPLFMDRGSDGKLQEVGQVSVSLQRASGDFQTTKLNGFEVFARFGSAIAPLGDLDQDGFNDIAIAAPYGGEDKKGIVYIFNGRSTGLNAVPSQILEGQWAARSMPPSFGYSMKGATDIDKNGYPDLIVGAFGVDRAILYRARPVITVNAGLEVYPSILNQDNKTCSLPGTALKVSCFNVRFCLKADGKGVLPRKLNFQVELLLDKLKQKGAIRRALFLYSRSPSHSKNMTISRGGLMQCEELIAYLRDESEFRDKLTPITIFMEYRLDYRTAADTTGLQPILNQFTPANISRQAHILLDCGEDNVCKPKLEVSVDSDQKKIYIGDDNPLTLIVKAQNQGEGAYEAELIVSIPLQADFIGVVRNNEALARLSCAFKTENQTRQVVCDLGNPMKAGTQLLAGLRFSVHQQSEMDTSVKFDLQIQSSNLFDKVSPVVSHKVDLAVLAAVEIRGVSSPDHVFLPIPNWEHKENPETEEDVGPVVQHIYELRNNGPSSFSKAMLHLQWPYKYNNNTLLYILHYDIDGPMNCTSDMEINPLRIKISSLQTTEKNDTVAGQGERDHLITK
UniProt P06756, 891-1048 partner limits assumed: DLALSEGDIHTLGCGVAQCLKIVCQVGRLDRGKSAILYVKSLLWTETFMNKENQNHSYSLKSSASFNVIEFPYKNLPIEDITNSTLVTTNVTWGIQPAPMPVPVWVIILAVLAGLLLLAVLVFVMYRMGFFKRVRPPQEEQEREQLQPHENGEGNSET
UniProt P18564, 22-707 limits assumed: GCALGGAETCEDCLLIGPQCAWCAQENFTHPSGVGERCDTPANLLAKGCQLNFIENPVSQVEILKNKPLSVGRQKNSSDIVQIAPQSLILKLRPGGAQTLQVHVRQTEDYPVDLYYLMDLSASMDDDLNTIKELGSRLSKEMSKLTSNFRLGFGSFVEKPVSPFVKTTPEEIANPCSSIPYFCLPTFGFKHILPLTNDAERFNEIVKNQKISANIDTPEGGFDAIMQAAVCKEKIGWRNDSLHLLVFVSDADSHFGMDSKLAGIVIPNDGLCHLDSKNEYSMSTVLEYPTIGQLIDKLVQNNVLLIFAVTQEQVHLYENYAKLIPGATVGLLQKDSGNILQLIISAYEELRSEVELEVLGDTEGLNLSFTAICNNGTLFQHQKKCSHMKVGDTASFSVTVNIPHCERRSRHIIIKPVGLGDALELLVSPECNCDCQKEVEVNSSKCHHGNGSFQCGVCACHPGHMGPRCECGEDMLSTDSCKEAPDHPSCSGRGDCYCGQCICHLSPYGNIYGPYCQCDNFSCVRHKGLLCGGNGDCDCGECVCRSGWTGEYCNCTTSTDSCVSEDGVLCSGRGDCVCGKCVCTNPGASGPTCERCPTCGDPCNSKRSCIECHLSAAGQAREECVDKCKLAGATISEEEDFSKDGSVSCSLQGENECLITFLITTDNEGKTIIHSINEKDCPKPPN
UniProt P18564, 22-788 limits assumed: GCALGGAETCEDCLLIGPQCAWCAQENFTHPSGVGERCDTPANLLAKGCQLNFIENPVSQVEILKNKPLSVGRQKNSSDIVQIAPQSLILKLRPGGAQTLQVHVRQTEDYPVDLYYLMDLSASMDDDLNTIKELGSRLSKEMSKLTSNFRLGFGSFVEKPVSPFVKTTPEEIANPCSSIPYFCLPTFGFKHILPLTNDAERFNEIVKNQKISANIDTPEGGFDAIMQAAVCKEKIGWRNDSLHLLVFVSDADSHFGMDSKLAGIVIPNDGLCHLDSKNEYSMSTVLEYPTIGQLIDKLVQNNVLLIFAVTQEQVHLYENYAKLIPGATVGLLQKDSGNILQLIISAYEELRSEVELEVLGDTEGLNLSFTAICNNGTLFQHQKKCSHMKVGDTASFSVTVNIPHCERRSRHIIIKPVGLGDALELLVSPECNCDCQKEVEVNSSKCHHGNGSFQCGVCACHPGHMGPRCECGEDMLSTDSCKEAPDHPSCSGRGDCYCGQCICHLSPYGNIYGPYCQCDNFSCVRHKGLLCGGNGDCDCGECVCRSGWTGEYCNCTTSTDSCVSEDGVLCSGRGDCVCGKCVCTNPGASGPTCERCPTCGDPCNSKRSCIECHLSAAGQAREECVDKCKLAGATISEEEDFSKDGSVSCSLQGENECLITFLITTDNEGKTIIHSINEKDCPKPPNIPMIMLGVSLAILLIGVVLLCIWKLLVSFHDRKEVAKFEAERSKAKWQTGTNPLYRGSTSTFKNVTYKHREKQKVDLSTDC

SMILES: CC(C)C[C@H](NC(=O)[C@H](CC(=O)O)NC(=O)CNC(=O)[C@H](CCCNC(=N)N)NC(=O)[C@H](CC(C)C)NC(=O)[C@H](CC(N)=O)NC(=O)[C@@H]1CCCN1C(=O)[C@@H](NC(=O)[C@H](C)NC(=O)[C@H](CC(N)=O)NC(=O)CCCC[C@@H]1SC[C@@H]2NC(=O)N[C@@H]21)C(C)C)C(=O)N[C@@H](CCC(N)=O)C(=O)N[C@H](C(=O)N[C@@H](CC(C)C)C(=O)N[C@@H](C)C(=O)N[C@@H](CCC(N)=O)C(=O)N[C@@H](CCCCN)C(=O)N[C@H](C(=O)N[C@@H](C)C(=O)N[C@@H](CCCNC(=N)N)C(=O)N[C@H](C(=O)N[C@@H](CCCCN)C(N)=O)[C@@H](C)O)C(C)C)C(C)C [Peptide A20FMDV2, reference compound]
- binding affinity reported previously (αvβ6 integrin): single digit nanomolar
- Kd [1]: 63.1 ± 20.6 nM

Reference: patent US20240209034A1 (priority 2021, published 2024)
